Broadly, the IC50 is the concentration needed to halve the response being measured.

Amino acid sequences for entries named in this document (tags omitted). Residues count along the entry.
UniProt P09619, 33-1106: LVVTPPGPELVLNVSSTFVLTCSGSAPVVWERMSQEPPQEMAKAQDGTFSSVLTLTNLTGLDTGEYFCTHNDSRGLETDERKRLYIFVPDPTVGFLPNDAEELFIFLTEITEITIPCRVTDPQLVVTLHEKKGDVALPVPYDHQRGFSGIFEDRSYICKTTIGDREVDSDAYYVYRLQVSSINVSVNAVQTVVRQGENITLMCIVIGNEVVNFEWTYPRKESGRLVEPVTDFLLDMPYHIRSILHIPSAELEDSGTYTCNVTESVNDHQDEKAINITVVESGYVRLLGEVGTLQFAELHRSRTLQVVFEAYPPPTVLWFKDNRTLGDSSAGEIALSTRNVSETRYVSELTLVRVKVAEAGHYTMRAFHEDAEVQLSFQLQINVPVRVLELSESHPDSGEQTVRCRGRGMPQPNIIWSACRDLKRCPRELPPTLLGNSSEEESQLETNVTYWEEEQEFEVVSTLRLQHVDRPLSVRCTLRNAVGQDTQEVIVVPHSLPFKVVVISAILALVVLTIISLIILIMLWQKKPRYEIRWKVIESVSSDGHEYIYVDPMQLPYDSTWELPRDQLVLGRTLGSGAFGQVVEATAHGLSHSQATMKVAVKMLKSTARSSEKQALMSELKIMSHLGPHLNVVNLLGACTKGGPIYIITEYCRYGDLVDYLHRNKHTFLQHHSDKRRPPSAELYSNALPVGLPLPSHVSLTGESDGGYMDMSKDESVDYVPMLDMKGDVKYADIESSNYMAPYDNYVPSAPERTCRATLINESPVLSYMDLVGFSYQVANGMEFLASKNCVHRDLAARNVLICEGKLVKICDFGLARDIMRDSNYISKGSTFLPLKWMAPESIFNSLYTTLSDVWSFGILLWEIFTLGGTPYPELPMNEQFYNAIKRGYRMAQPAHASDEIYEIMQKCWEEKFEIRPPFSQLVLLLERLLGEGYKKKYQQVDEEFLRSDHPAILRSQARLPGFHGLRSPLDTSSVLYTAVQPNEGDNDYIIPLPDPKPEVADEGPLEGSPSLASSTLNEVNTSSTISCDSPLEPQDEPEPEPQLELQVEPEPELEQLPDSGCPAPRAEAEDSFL

Results on 2 molecules are retold here after patent US10047096B2, “Substituted pyridobenzodiazepinone-derivatives and use thereof” (Bayer Pharma Aktiengesellschaft, priority 2014, dated 2018).

In assay [1] the target is pPDGFRβ in normal human dermal fibroblasts (NHDF) (Homo sapiens (Human), UniProt P09619). In words: Cellular pPDGFRβ inhibition assay. The format is cell-based. The note with it: NHDF stimulated with 50 ng/ml PDGF-BB, 1 h. How it is done:
Normal human dermal fibroblasts (NHDF; Promocell, Cat. No. C-12300; passage 2-7) were sown in a quantity of 7×10^3 cells/well in 48-well plates (Falcon™ MultiWell Cell Culture Plates, Falcon, Cat. No. B3668-3B) and incubated at 37° C., 5% CO2 and 95% relative air humidity overnight in minimal medium supplemented with GlutaMAX™ (Minimum Essential Medium, Gibco, Cat. No. 41090-028), 10% heat-inactivated (30 min at 56° C.) foetal calf serum (FBS; BioWhittaker, Lonza, Cat. No. DE14-801F) and 5 μg/ml insulin (Insulin solution human, Sigma, Cat. No. 19278). The next day, the GlutaMAX™-supplemented minimal medium was replaced by the Opti-MEM® I Reduced Serum Medium (Gibco, Cat. No. 31985-047) and incubated again under the conditions described above for 3 h. Thereafter, 50 ng/ml recombinant human PDGF-BB (R&D Systems, Cat. No. 220-BB-050) and a dilution series of the test substances to be examined in DMSO were added to the cells. The total volume per well was 100 μl. […] The lysed cell samples were either stored at −20° C. or analysed immediately after the lysis in a Meso Scale SECTOR® Imager 2400 according to the abovementioned manufacturer's instructions. […] The IC50 values were calculated by employing the nonlinear regression (curve fit) function of GraphPad Prism 6 (La Jolla, Calif., USA).

Another assay deals with human PDGFRβ (Homo sapiens (Human), UniProt P09619). As to the kind of experiment: PDGFRβ kinase assay (PDGFRβ-HTRF). The conditions noted are these: 10 μM ATP; some mean values from multiple determinations. The format is biochemical. The procedure: The PDGFRβ-inhibitory activity of the inventive compounds was determined in the PDGFRβ-HTRF assay described hereinafter.
The IC50 values were calculated by a 4-parameter fit.
On the technique in general: TR-FRET usually uses a lanthanide donor and a delayed reading to cut background.

The molecule `Cc1cc(F)c(Nc2ccnc3c2C(=O)Nc2cc(CN4CCCC(CCO)C4)ccc2N3)cc1O` (racemic) [Example 58, rac-4-[(2-Fluoro-5-hydroxy-4-methylphenyl)amino]-8-{[3-(2-hydroxyethyl)piperidin-1-yl]methyl}-6,11-dihydro-5H-pyrido[2,3-b][1,5]benzodiazepin-5-one] yielded an IC50 in assay [1] of 28.7 nM.

As to `CCN(CCO)Cc1ccc2c(c1)NC(=O)c1c(Nc3cc(O)c(C)cc3F)ccnc1N2` [Example 52, 8-{[Ethyl(2-hydroxyethyl)amino]methyl}-4-[(2-fluoro-5-hydroxy-4-methylphenyl)amino]-6,11-dihydro-5H-pyrido[2,3-b][1,5]benzodiazepin-5-one], the IC50 in assay [1] was determined as 29.7 nM; against human PDGFRβ, 1.1 nM.
